Test results from paper PMC10108392, “Rimonabant-Based Compounds Bearing Hydrophobic Amino Acid Derivatives as Cannabinoid Receptor Subtype 1 Ligands” (ACS Medicinal Chemistry Letters, 2023).

By UniProt entry, the sequences of proteins in these tests, tags left out.
UniProt P20272, whole entry: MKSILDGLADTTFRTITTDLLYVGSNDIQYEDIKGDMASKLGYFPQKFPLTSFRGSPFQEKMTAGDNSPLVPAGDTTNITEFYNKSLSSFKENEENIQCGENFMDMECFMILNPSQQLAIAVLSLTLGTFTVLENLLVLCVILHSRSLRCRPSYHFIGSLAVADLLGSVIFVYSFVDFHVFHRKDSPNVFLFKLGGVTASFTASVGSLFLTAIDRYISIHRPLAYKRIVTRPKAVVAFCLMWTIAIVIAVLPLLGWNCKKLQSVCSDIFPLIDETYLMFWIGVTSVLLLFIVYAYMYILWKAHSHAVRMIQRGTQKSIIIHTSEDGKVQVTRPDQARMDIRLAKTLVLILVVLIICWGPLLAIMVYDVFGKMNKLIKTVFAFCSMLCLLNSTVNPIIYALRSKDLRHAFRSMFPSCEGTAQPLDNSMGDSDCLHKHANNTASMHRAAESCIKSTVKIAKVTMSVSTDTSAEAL

Experiments:
mice = details: 100 μg in 20 μL s.c., 15 min before formalin
Description: testing. […] Then, the compounds were
Compounds were prepared by freshly diluting
Then, these solutions were injected for
The total time the animal spent licking or biting its paw was calculated.
Then, paw edema was calculated as formerly
Paw volume was quantified using a
Data Analysis and Statistics
Statistically significant differences between
Data were considered statistically
The data and statistical analyses respected the recommendations on experimental design and analysis.

CB1R = target: T1, CB1R (Rattus norvegicus, UniProt P20272); assay: Ligand stimulated [35S]GTPγS binding assay in rat brain membranes; assay type: biochemical; details: read-out: [35S]GTPγS stimulation Emax
T1 construct: Crude membrane fractions were prepared from the brain; from tissue; host or cells: Wistar rat whole brain, crude membrane fraction
Description: Our novel chemical compounds were tested in vitro for their binding ability, efficacy, and potency on CB1R in rat brain membrane homogenate (Table 2 and SI, Figure S1). CB1Rs are the most abundant G-protein coupled receptors in the rodent and mammalian brain; therefore, this is an appropriate model to characterize our ligands in a more physiological system.
In Vitro Biological Assays
Preparation of Brain Membrane Homogenates
Wistar rats were locally bred and handled according to the EU Directive 2010/63/EU and to the Regulations on Animal Protection (40/2013. (II. 14.) Korm. r.) of Hungary. Crude membrane fractions were prepared from the brain. […]
was terminated by diluting the samples with an ice-cold wash buffer (50 mM of Tris-HCl, 2.5 mM of EGTA, 5 mM of MgCl2, 0.5% fatty acid free BSA, pH 7.4), followed by repeated washing and rapid filtration through Whatman GF/B glass fiber filters (Whatman Ltd., Maidstone, UK) pre-soaked with 0.1% polyethyleneimine (30 min before the filtration). […] Filters were air-dried and immersed into Ultima Gold MV scintillation cocktail, and then radioactivity was measured with a TRI-CARB 2100TR liquid scintillation analyzer (Packard, Perkin Elmer, Waltham, MA, USA). […]
mM of NaCl, 3 mM of MgCl2 and 1 mM of EGTA in a 50 mM Tris-HCl buffer (pH 7.4) for 60 min at 30 °C. Basal [35S]GTPγS binding was measured in the absence of ligands and set as 100%. […]

| Structure (SMILES) | formalin test, late phase (licking activity 15 to 40 min) (mice) | Emax (CB1R) |
| --- | --- | --- |
| CNC(=O)[C@@H](NC(=O)c1nn(-c2ccc(Cl)cc2)c(-n2cccc2)c1C)C(C)(C)C [Compound 34, RS2691-tLeu-NHCH3] | less efficacious |  |
| Cc1c(C(=O)NN2CCCCC2)nn(-c2ccc(Cl)cc2Cl)c1-c1ccc(Cl)cc1 [rimonabant, N-(piperidin-1-yl)-5-(4-Cl-phenyl)-1-(2,4-di-Cl-phenyl)-4-methyl-1H-pyrazole-3-carboxy-amide] |  | 38 ± 5% |
